Earlier results, collected in patent US20250025454A1 (priority 2021, published 2025).

Molecular target: optimized SARS-CoV-2 RdRp model (Severe acute respiratory syndrome coronavirus 2, UniProt P0DTD1)
Settings: cited from earlier work

NC(=O)c1ncn([C@@H]2O[C@H](CO)[C@@H](O)[C@H]2O)n1 [ribavirin]
docking score reported by Elfiky: -7.8 kcal/mol
